Laboratory results from ChEMBL document CHEMBL5236663, “Structure-activity relationship of dibenzylideneacetone analogs against the neglected disease pathogen, Trypanosoma brucei” (Bioorg Med Chem Lett, 2023).

Test system: HEK293
Assay: Cytotoxicity against human HEK293 cells assessed as reduction in cell viability at 20 uM measured after 48 hrs by resazurin reagent based multilabel reader analysis
Assay type: toxicity
Conditions: hek293, 48 h

## COc1ccc(/C=C/C(=O)CC(=O)/C=C/c2ccc(OC)cc2OC)c(OC)c1
  CC50: > 20 µM
